Earlier results, collected in US20250281570A1 (UCB BIOPHARMA SRL, priority 2022, published 2025).

Tests used:
[1] = test system: AChR autoantibody-positive patients with refractory gMG
[2] = test system: AChR autoantibody-positive patients with refractory gMG; remark: listed apart in the source
[3] = Eculizumab 1200 mg, Week 26, REGAIN
[4] = REGAIN and open-label extension

B1: eculizumab (antibody, chains of the INN, looked up)
heavy: QVQLVQSGAEVKKPGASVKVSCKASGYIFSNYWIQWVRQAPGQGLEWMGEILPGSGSTEYTENFKDRVTMTRDTSTSTVYMELSSLRSEDTAVYYCARYFFGSSPNWYFDVWGQGTLVTVSSASTKGPSVFPLAPCSRSTSESTAALGCLVKDYFPEPVTVSWNSGALTSGVHTFPAVLQSSGLYSLSSVVTVPSSNFGTQTYTCNVDHKPSNTKVDKTVERKCCVECPPCPAPPVAGPSVFLFPPKPKDTLMISRTPEVTCVVVDVSQEDPEVQFNWYVDGVEVHNAKTKPREEQFNSTYRVVSVLTVLHQDWLNGKEYKCKVSNKGLPSSIEKTISKAKGQPREPQVYTLPPSQEEMTKNQVSLTCLVKGFYPSDIAVEWESNGQPENNYKTTPPVLDSDGSFFLYSRLTVDKSRWQEGNVFSCSVMHEALHNHYTQKSLSLSLG
light: DIQMTQSPSSLSASVGDRVTITCGASENIYGALNWYQQKPGKAPKLLIYGATNLADGVPSRFSGSGSGTDFTLTISSLQPEDFATYYCQNVLNTPLTFGQGTKVEIKRTVAAPSVFIFPPSDEQLKSGTASVVCLLNNFYPREAKVQWKVDNALQSGNSQESVTEQDSKDSTYSLSSTLTLSKADYEKHKVYACEVTHQGLSSPVTKSFNRGEC
**Q.** With B1 as the molecule, how does the “primary endpoint, change from baseline in MG-ADL relative to placebo” value ([1]; 26-week treatment period, 900 mg per week for 4 weeks then 1200 mg every other week IV, p=0.0698) read?
**A.** The value was “not associated with a statistically significant benefit relative to placebo”.

**Q.** And the “secondary endpoint, change from baseline in QMG score relative to placebo” value ([1]; 26-week treatment period, p=0.0129)?
**A.** Its value is “statistically significant”.

**Q.** What about the “MG-ADL LS mean difference vs placebo (CI)” value [1, 3] of the same molecule?
**A.** The value was −1.8 (−3.2, −0.5); 0.0077.

**Q.** And the “MGC LS mean difference vs placebo (CI)” value [1, 3]?
**A.** The value was −3.3 (−5.9, −0.6); 0.0168.

**Q.** And the “QMG LS mean difference vs placebo (CI)” value [1, 3]?
**A.** The value was −2.9 (−4.6, −1.2); 0.0007.

**Q.** And the “MG-ADL late responders (response achieved between Week 12 and end of OLE)” value [1, 4]?
**A.** Its value is 17%.

**Q.** And the MG-ADL non responders [1, 4]?
**A.** The MG-ADL non responders was 15%.

**Q.** What about the “QMG late responders (response achieved between Week 12 and end of OLE)” value [1, 4] of the same molecule?
**A.** Its value is 15%.

**Q.** What about the QMG non responders [1, 4] of the same molecule?
**A.** Its QMG non responders is 29%.

**Q.** And the “time to impact on QMG score after initiating treatment” value ([2]; in vivo)?
**A.** The value was ≤ 1 week.

**Q.** What about the “responding patients achieving an 8-point reduction in QMG score” value ([2]; initial 16-week treatment period) of the same molecule?
**A.** The value was 4.

**Q.** And the “patients achieving ≥3-point improvement in QMG score” value ([2]; initial 16-week treatment period, 600 mg per week for 4 weeks then 900 mg every other week IV)?
**A.** The value was 6 out of 7.
